Target: Chitotriosidase-1 (Homo sapiens, UniProt Q13231)
Experiment: Inhibition of full-length C-terminal his-tagged human CHIT1 expressed in CHOK1 cells assessed as reduction in chitinolytic activity using 4-methylumbelliferyl-beta-D-N,N',N\"-triacetylchitotrioside as substrate after 60 mins by fluorometric assay
Type: cell-based

Protein sequences, listed by entry. Tags and fused reporters are not part of them. Lines headed by an entry give the natural chain unless they say otherwise; changes in a name come on top.
UniProt Q13231: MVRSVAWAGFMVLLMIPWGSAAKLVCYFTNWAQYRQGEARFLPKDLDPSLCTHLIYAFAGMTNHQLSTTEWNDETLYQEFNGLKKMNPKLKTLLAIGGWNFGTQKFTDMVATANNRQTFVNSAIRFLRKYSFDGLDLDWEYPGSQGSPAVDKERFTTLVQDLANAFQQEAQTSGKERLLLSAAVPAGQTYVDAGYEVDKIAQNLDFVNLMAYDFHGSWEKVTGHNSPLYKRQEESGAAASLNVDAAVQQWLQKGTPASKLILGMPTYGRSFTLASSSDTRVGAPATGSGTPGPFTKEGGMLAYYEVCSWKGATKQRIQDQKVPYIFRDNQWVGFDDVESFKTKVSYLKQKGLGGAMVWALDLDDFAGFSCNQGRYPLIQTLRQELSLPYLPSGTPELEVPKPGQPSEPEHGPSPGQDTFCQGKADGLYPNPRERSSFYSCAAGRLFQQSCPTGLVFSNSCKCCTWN

IC50: 59 nM
Structure (SMILES): Nc1nnc(N2CCC(N3CCC[C@@H]3Cc3ccc(Cl)cc3)CC2)[nH]1
